Source: ChEMBL document CHEMBL2440034, “Towards new C6-rigid S-DABO HIV-1 reverse transcriptase inhibitors: synthesis, biological investigation and molecular modeling studies” (Bioorg Med Chem, 2013)

Biological target: Human immunodeficiency virus type 1 reverse transcriptase (Human immunodeficiency virus 1, UniProt Q72547)
Assay: Inhibition of recombinant wild type HIV-1 reverse transcriptase p66/p51 expressed in Escherichia coli JM109 using poly(rA)/oligo(dT)16 (1:1.2) as template/primer after 40 mins by spectrofluorometric analysis

SMILES: Cc1cc(C#N)cc(C)c1Oc1nc(Nc2ccc(C#N)cc2)nc(N)c1Br [ETRAVIRINE]
- IC50: 17 nM
